## scFv variants of Ab-14 (heavy chain) against a SARS-CoV-2 spike peptide

Binding partner: SARS-CoV-2 spike HR2 peptide, sequence PDVDLGDISGINAS.

Ab-14 is the parent antibody, in scFv form: VH, then a (GGGGS)3 linker, then VL. The light chain is unchanged in all variants.
VH: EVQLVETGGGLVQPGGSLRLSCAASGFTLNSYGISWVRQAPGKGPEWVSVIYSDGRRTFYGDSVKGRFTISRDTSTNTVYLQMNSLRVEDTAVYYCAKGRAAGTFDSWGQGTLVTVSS
VL: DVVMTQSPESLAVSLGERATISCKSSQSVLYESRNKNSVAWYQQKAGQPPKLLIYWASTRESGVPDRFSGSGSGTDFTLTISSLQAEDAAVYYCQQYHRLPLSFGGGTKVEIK

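Phage display of a naive human antibody library on the peptide gave the parent. These sequences belong to a second round, designed from the earlier measurements on random variants of the parent. Group labels follow the data file (Ctrl: baseline library sampled from a position-specific scoring matrix, with some repeated check sequences; Rand: our label for a block that the file lists under HC and that is probably the random mutants of the ten best first-round binders; En: ensemble of fine-tuned language models; GP: Gaussian process model; GPLM: also part of the Gaussian process libraries; HC: hill climbing; Gen: genetic algorithm; Gibbs: Gibbs sampling; a sequence that several methods proposed may carry one label only). AlphaSeq pools MATa yeast showing the antibodies with MATalpha yeast showing the peptide. Pairs that bind mate more often; barcode pairs of the diploids are counted by sequencing. Each replicate has its own calibration line, from reference interactions of the BCL2 family. The assay was run in six technical replicates.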

Each variant is given by its three heavy chain CDRs, as the data file delimits them; those of the parent are GFTLNSYGIS, VIYSDGRRTFYGDSVK, GRAAGTFDS. Variants here have at most six changes. Kd is apparent (estimated from mating counts) and averaged on the log scale over replicates with a signal. Smaller is tighter. An entry "nd" has no value in the source: the pair was not observed among the diploids in any replicate. This suggests poor binding but is not conclusive. Order: sorted from the lowest average up, undetected variants last.

With GFSLNEYGIS | VIYSDGRRTFYGDSVK | GTTAGTFDS [GP_Gen] the result was 580 pM (6 of 6 replicates). For GFSLNSYGIS | VIYSDGRRTFYGDDVK | GSTAGTFDS [GP_Gibbs], the assay gave 610 pM (6 of 6 replicates). With GFDLNEYGIS | VIYADGRRTFYKDSVK | GETAGTFDS [En_HC] the result was 650 pM (6 of 6 replicates). For GFSLNSYGIS | VIYSDGRRTAYGDSVK | GRNAGTFDS [GPLM_Gibbs], the assay gave 720 pM (6 of 6 replicates). For GFDLNSYGIS | VIYSDGRRTFYDDSVK | GRMAGTFDS [GP_Gen], the assay gave 850 pM (6 of 6 replicates). The variant GFLLNDYGIS | VIYSDGRRTFYADSVK | GRAAGTFDS [GPLM_Gen] gave 1.2 nM (4 of 6 replicates). With GFQLNEYGIS | VIYSDGRRTFYGDSVK | GNAAGTFDS [GPLM_Gen] the result was 1.5 nM (6 of 6 replicates).

For GFALNEYGIS | VIYSDGRRTFYGDSVK | GRAAGTFDS [Ctrl], the assay gave 1.6 nM (6 of 6 replicates). The variant GFVLNSYGIS | VIYSDGRRTFYADSVK | GNVAGTFDS [GPLM_Gibbs] showed 2.8 nM (6 of 6 replicates). With GFTLNEYGIS | VIYSDGRRTFYHDSVK | GRAAGTFDQ [Ctrl] the result was 3.3 nM (6 of 6 replicates). With GFTLNEYGIS | VIYSDGKRTFYGDSVK | GRQAGTFDS [GP_Gen] the result was 4.2 nM (6 of 6 replicates). The variant GFSLNSYGIS | VIYSDGRRTFYQDDVK | GQAAGTFDS [GP_Gen] gave 8.5 nM (6 of 6 replicates). For GFSLNSYGIS | VIYSDGRRTFYGDSVK | GQAAGTFDQ [GPLM_Gen], the assay gave 9.3 nM (6 of 6 replicates). The variant GFTLNDYGIS | VIYSDGRRTFYGDSVA | GRAAGTFDS [Ctrl] showed 9.9 nM (6 of 6 replicates).

With GFQLNSYGIS | VIYSDGRRTFYADQVK | GNEAGTFDS [GP_Gibbs] the result was 12 nM (6 of 6 replicates). For GFTLNDYGIS | VIYSDGKRTFYIDSVK | GKAAGTFWS [GP_HC], the assay gave 21 nM (1 of 6 replicates). For GFDLNSYGIT | VIYSDGRRTFYGDSVK | GRAAGTFDS [Ctrl], the assay gave 22 nM (6 of 6 replicates). The variant GFDLNSYGES | VIYSDGRRTFYGDAVK | HRAAGLFDS [Ctrl] showed 29 nM (1 of 6 replicates). The variant GFNLNSYGIS | VIYSDGRRTFYGDSVK | GRAAGTFDH [Ctrl] gave 36 nM (5 of 6 replicates). The variant GFTLASYGIS | VIYSDGRRTFYSDSVK | GRAAGTFDS [Ctrl] showed 44 nM (6 of 6 replicates). The variant GFTLNMYGIS | VIYSDGRRTQYADSVK | GRAAGTFDS [GP_HC] gave 69 nM (5 of 6 replicates).

The variant GFTLNHYGIS | VIYSDGRRTFYDDSVK | GQLPGTFDS [Rand] gave 200 nM (1 of 6 replicates). For GFHLNSYGIS | VIYSDGRRTFYVDSVK | GKTAGTFDS [GP_Gen], the assay gave 860 nM (1 of 6 replicates). The variant GFTLNQYGIS | VIYSDGKRTFYGDSVK | GRAAGTFDS [Ctrl] showed nd (0 of 6 replicates). The variant GFELNSYGIS | VIYSDGRRTFYGDHVK | GKTAGTFDS [GP_Gen] gave nd (0 of 6 replicates). The variant GFTLNSYGIS | VIYSDGRRTFYQDSVK | GQAADTFDS [Ctrl] gave nd (0 of 6 replicates). For GFDLNSYGIS | VIYSDGRRTFYGDSVK | GNAAGTFEP [Ctrl], the assay gave nd (0 of 6 replicates). With GFWLNSYGIS | VIYSDGRRTFYGDSVK | GEVEGTFDS [Ctrl] the result was nd (0 of 6 replicates).

For GFTLNSYGIS | VIYSDGRRTFYGTSVK | GRAVGTFDS [Ctrl], the assay gave nd (0 of 6 replicates). With GFTLNSYGIS | VIYSDGRRTFYGDSVK | GMAAGCFDL [Ctrl] the result was nd (0 of 6 replicates). With GFTLNEYGIS | VIYSDGIRTFYGDSVK | GRQAGTFIS [GPLM_HC] the result was nd (0 of 6 replicates).

The closing 3 entries, repeated:

CDR-H1	CDR-H2	CDR-H3	group	Kd (apparent)	replicates with signal
GFTLNSYGIS	VIYSDGRRTFYGTSVK	GRAVGTFDS	Ctrl	nd	0 of 6
GFTLNSYGIS	VIYSDGRRTFYGDSVK	GMAAGCFDL	Ctrl	nd	0 of 6
GFTLNEYGIS	VIYSDGIRTFYGDSVK	GRQAGTFIS	GPLM_HC	nd	0 of 6

The authors' rule: three or more of the six replicates give a measured affinity, fewer mean a poor binder. Empty control strains, which show no peptide, gave a signal in 1% of pairings with all heavy chain designs; the median was 120 nM and 95% of these signals were weaker than 7.0 nM. No background was subtracted. Values of this round are not directly comparable with the first-round values of the same sequences.

The measurements come from Li et al. 2023 (doi:10.1038/s41467-023-39022-2) through the FLAb antibody collection.